Screening results (PubChem BioAssay)
Shown are actives, neighbours in structure and some others; about 2% of the full set was active somewhere.
Rango-impB inh: qHTS Assay for Inhibitors of Rango (Ran-regulated importin-beta cargo) - Importin beta complex formation | Rango CFP/YFP FRET sensor + importin beta, 45 min | 340,000 tested, 0.031% active | Importin subunit beta-1 (Homo sapiens), Q14974 | Potency, µM (top dose mostly 92.2 µM), for inactives: top-dose inhibition of complex formation; calls by dose curve;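 note: 0% = DMSO wells and 100% = buffer wells lacking importin beta; nearly all actives have a fitted effect of over 15% in size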
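FRET biosensor Rango (snurportin 1 IBB between N-terminal EYFP and C-terminal Cerulean), 50 nM in PBS/1 mM DTT/0.02% Tween-20/0.1% BSA, preincubated 5 min RT with compound; 0.125 microM importin beta added, 45 min RT, CFP/YFP FRET ratio read.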
Abeta rescue: qHTS for compounds that reverse cellular toxicity of Amyloid beta (A-beta) peptide in yeast: Primary Screen; yeast expressing A-beta42, growth rescue, OD600, 48 h; response scale: 0% DMSO, 100% iron-clioquinol control; Potency, µM (doses to about 46.1 µM), hits mostly activators; 410,000 tested, 0.063% active; AID 1347071, 2019; note: nearly all actives have a fitted effect of over 55% in size
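Yeast growth medium received pinned compounds, then yeast cells expressing toxic A-beta were added; plates incubated at 30 C for 48 hr. Growth read as absorbance at 600 nm, normalized to DMSO and equimolar FeCl3 plus clioquinol controls.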
aSyn yeast inh: qHTS of alpha-syn Inhibitors | Potency, µM (doses to about 46.1 µM), inactives show top-dose growth rescue (activation), hits mostly activators | 370,000 tested, 0.14% active | Yeast expressing alpha-synuclein, growth rescue, BacTiter-Glo, 24 h; note: % of control where 0% means no effect; nearly all actives have a fitted effect of over 65% in size
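Rescue of yeast growth: cells expressing toxic alpha-synuclein, induced in galactose at OD600 0.02, incubated with compound 24 h at 30 C. ATP luminescence quantified growth; inhibitors of toxicity appear as activators.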
Rango dissoc inh: qHTS Assay for Inhibitors of RanGTP induced Rango (Ran-regulated importin-beta cargo) - Importin beta complex dissociation; Potency, µM (top dose mostly 46.1 µM), without a hit: top-dose activity change, negative = inhibition; Biochemical FRET Rango-importin beta, RanGTP-induced dissociation; 340,000 tested, 0.071% active; calls by dose curve; note: % of control where 0% means no effect; nearly all actives have a fitted effect of over 45% in size
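Rango (0.1 uM)–importin beta (0.25 uM) complex; RanGTP-RCC1 trigger; 45 min RT; CFP/YFP FRET read.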
ASM inhibitor: Inhibitors of Secretory Acid Sphingomyelinase (S-ASM): qHTS | Sphingomyelin phosphodiesterase (Homo sapiens), P17405 | placental ASM, HMU-PC fluorogenic substrate, 60 min | Potency, µM (highest dose often 57.5 µM), without a hit: top-dose activity change, negative = inhibition, most hits filed as inhibitors | 340,000 tested, 0.006% active
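Human placenta-derived ASM preincubated with compound 10 min at room temperature, then reacted with 9 uM (final) fluorogenic HMU-PC substrate for 60 min at 37 C. Stop solution raises pH to 10; fluorescence read at Ex 386/Em 447 nm.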
TDP-43 yeast inh: qHTS of TDP-43 Inhibitors; TDP-43 expressing yeast growth rescue, BacTiter-Glo, 24 h; Potency, µM (doses to about 46.1 µM), for the others: at the highest dose growth rescue (activation), most hits filed as activators; 410,000 tested, 1.8% active; note: % of control where 0% means no effect; nearly all actives have a fitted effect of over 50% in size
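Galactose-induced TDP-43 yeast, OD600=0.02, compound pinned; 24 hr, 30 deg C; BacTiter-Glo luminescence for growth. Inhibitors of TDP-43 toxicity read as activators.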
Starred values were filed as active, the others as inactive; i = inactive; ? = inconclusive; / = not tested or not shown. Unless noted, calls come from the whole dose curve; as a rule, active = well fitted curve in the direction sought with a large enough effect; inconclusive = small, poorly fitted or top-dose-only effect, or another doubt; inactive = no such curve, though single readings can be large; an effect the other way counts as inactive or inconclusive. Potency is the fitted concentration of half-maximal effect.

| cpd | structure | Rango-impB inh | Abeta rescue | aSyn yeast inh |
| --- | --- | --- | --- | --- |
| 1 | O=C(NC(C(=O)N/N=C/c1cc([N+](=O)[O-])ccc1O)c1n[nH]c(=O)c2ccccc12)c1ccccc1 (stereo not given) | ? | i | -16.7% |
| 2 | O=[N+]([O-])c1cccc(N/N=C/c2cc([N+](=O)[O-])ccc2O)c1 | 1.1% | i | 1.9% |
| 3 | CCNC(=O)c1c(NC(=O)Cc2coc3cc(C)ccc23)sc2c1CCCC2 | / | i | / |
| 4 | O=[N+]([O-])c1ccc(NN=Cc2ccccc2O)nc1 | ? | i | 24.6% |
| 5 | S=c1[nH]c2ccccc2n2cccc12 | 2.9% | 11.2µM* | 0.0% |
| 6 | CCN(CC)S(=O)(=O)c1ccc2oc(C(=O)N(C)Cc3ccccc3)c(C)c2c1 | / | i | / |
| 7 | CC(=O)Oc1ccc(/C=C2/CCc3ccccc3C2=O)cc1 | -1.6% | i | -29.6% |
| 8 | COc1ccc(/C=C2\CCc3ccccc3C2=O)cc1OC | ? | i | -3.7% |

| cpd | Rango dissoc inh | ASM inhibitor | TDP-43 yeast inh |
| --- | --- | --- | --- |
| 1 | 16.4µM* | ? | 11.7% |
| 2 | 3.1% | -14.1% | -1.0% |
| 3 | / | / | 6.5% |
| 4 | ? | 4.3% | 22.4µM* |
| 5 | ? | -8.2% | 12.6µM* |
| 6 | / | / | 0.0% |
| 7 | -25.7% | -0.6% | 11.2µM* |
| 8 | 4.2% | -2.7% | ? |

5 entries drawn at random from the list so far:
| cpd | structure | Rango-impB inh | Abeta rescue | aSyn yeast inh |
| --- | --- | --- | --- | --- |
| 7 | CC(=O)Oc1ccc(/C=C2/CCc3ccccc3C2=O)cc1 | -1.6% | i | -29.6% |
| 2 | O=[N+]([O-])c1cccc(N/N=C/c2cc([N+](=O)[O-])ccc2O)c1 | 1.1% | i | 1.9% |
| 1 | O=C(NC(C(=O)N/N=C/c1cc([N+](=O)[O-])ccc1O)c1n[nH]c(=O)c2ccccc12)c1ccccc1 (stereo not given) | ? | i | -16.7% |
| 6 | CCN(CC)S(=O)(=O)c1ccc2oc(C(=O)N(C)Cc3ccccc3)c(C)c2c1 | / | i | / |
| 8 | COc1ccc(/C=C2\CCc3ccccc3C2=O)cc1OC | ? | i | -3.7% |

| cpd | Rango dissoc inh | ASM inhibitor | TDP-43 yeast inh |
| --- | --- | --- | --- |
| 7 | -25.7% | -0.6% | 11.2µM* |
| 2 | 3.1% | -14.1% | -1.0% |
| 1 | 16.4µM* | ? | 11.7% |
| 6 | / | / | 0.0% |
| 8 | 4.2% | -2.7% | ? |

Further entries follow:
| cpd | structure | Rango-impB inh | Abeta rescue | aSyn yeast inh |
| --- | --- | --- | --- | --- |
| 9 | COc1cccc(/C=C2\CCc3ccccc3C2=O)c1 | 1.6% | i | -3.3% |
| 10 | O=C1C(=Cc2ccccn2)CCc2ccccc21 | / | i | 0.7% |
| 11 | O=C1/C(=C/c2cccc([N+](=O)[O-])c2)CCc2ccccc21 | -0.1% | i | 4.6% |
| 12 | O=c1cc2c(nn1Cc1cccc([N+](=O)[O-])c1)-c1ccccc1CC2 | -1.5% | i | 1.8% |
| 13 | Cc1ccc(-c2nnc(SCC(=O)N3CCCc4ccccc43)o2)cc1 | / | i | / |
| 14 | O=C(C[n+]1csc2ccccc21)c1ccc(O)c(O)c1 | / | / | 3.5% |
| 15 | O=C(c1ccccc1)c1ccc2ccccc2c1 | -1.5% | i | -12.8% |
| 16 | O=C(c1ccccc1)c1ccc(O)cc1O | 58µM* | i | -0.1% |

| cpd | Rango dissoc inh | ASM inhibitor | TDP-43 yeast inh |
| --- | --- | --- | --- |
| 9 | 2.5% | -6.0% | 0.0% |
| 10 | / | / | 17.8µM* |
| 11 | 1.7% | -4.9% | 22.4µM* |
| 12 | 1.1% | -1.8% | 28.2µM* |
| 13 | / | / | 22.1% |
| 14 | / | / | / |
| 15 | -1.6% | -7.4% | -15.0% |
| 16 | 10.4% | -0.3% | ? |

Next part
| cpd | structure | Rango-impB inh | Abeta rescue | aSyn yeast inh |
| --- | --- | --- | --- | --- |
| 17 | O=C(COc1ccccc1)OCC(=O)c1ccc(O)cc1O | 1.3% | 12.6µM* | 3.5% |
| 18 | O=C(c1ccc(O)cc1)c1ccc(O)cc1O | -2.7% | i | 0.0% |
| 19 | O=C(c1ccccc1)c1ccc2cc(O)ccc2c1 | 0.1% | i | -30.5% |
| 20 | CC(=O)c1cccc(NC(=O)COC(=O)c2ccccc2OCc2cccc(Br)c2)c1 | / | / | -11.1% |
| 21 | CN(C)c1ccc(/C=C2/CCc3ccccc32)cc1 | / | / | 0.0% |
| 22 | CCCn1c2ccccc2c2cnn(CC(=O)N(Cc3ccccc3)C(C)C)c(=O)c21 | / | i | / |
| 23 | COCCn1c(CNC(=O)c2ccc(C)cc2)nc2cccnc21 | / | i | / |
| 24 | O=C(NC1CC1)c1cc2c(s1)-c1ccccc1OC2 | -0.7% | i | -13.7% |

| cpd | Rango dissoc inh | ASM inhibitor | TDP-43 yeast inh |
| --- | --- | --- | --- |
| 17 | 1.1% | -7.6% | 24.9% |
| 18 | -1.0% | 35.4% | 3.2% |
| 19 | -6.3% | -0.9% | 11.2µM* |
| 20 | / | / | / |
| 21 | / | / | / |
| 22 | / | / | -11.5% |
| 23 | / | / | 6.9% |
| 24 | 34.5% | i | ? |

The list continues.
| cpd | structure | Rango-impB inh | Abeta rescue | aSyn yeast inh |
| --- | --- | --- | --- | --- |
| 25 | O=C(O)c1cc2c(s1)-c1ccccc1OC2 | 2.0% | i | -4.1% |
| 26 | Cc1ccc(CNC(=O)C2(C)CCN2C(=O)Cc2ccc(-c3ccccc3)cc2)cc1 (stereo not given) | / | i | ? |
| 27 | CC1(C(=O)NCC2CCCCC2)CCN1C(=O)Cc1ccc(-c2ccccc2)cc1 (stereo not given) | / | i | 20.5% |
| 28 | COC(=O)c1sccc1NC(=O)Nc1ccc(C)cc1 | -1.4% | i | -43.4% |
| 29 | COc1ccc(NC(=O)c2sccc2-n2cccc2)cc1 | ? | i | -3.0% |
| 30 | COC(=O)c1sccc1NC(=O)Nc1ccc(C)cc1C | -0.8% | i | 0.3% |
| 31 | CCc1ccc(NC(=O)c2sccc2-n2cccc2)cc1 | 1.1% | i | 5.7% |
| 32 | O=C(Nc1ccc(Cl)cc1)c1sccc1-n1cccc1 | -2.0% | i | 2.1% |

| cpd | Rango dissoc inh | ASM inhibitor | TDP-43 yeast inh |
| --- | --- | --- | --- |
| 25 | -10.0% | 351.2% | 31.6µM* |
| 26 | / | / | 35.5µM* |
| 27 | / | / | 20µM* |
| 28 | -7.9% | -1.6% | ? |
| 29 | -15.3% | -0.2% | 12.6µM* |
| 30 | 33.8% | -4.8% | 12.6µM* |
| 31 | -10.2% | -21.2% | ? |
| 32 | -15.1% | -8.9% | ? |

Continued.
| cpd | structure | Rango-impB inh | Abeta rescue | aSyn yeast inh |
| --- | --- | --- | --- | --- |
| 33 | Cc1ccc(NC(=O)c2sccc2-n2cccc2)c(C)c1 | 0.0% | i | 6.6% |
| 34 | COc1ccc(CCC(=O)NO)cc1 | / | / | -0.7% |
| 35 | CCOc1ccc2c(c1)c(=O)c(C(=O)c1ccc(C)cc1)cn2Cc1ccccc1OC | / | i | / |
| 36 | N/C(=N\OC(=O)N1c2ccccc2Sc2ccccc21)c1ccccc1 | 0.6% | i | -73.0% |
| 37 | Cc1cccc(/C(N)=N/OC(=O)N2c3ccccc3Sc3ccccc32)c1 | ? | i | -63.6% |
| 38 | Cc1cccc(C(=O)O/N=C(/c2ccccc2)c2ccncc2)c1 | 5.4% | i | ? |
| 39 | O=C(O/N=C(\c1ccccc1)c1ccncc1)c1ccccc1Cl | -0.6% | i | ? |
| 40 | CCCCCn1c(CCCNC(=O)c2cccc(C)c2)nc2ccccc21 | / | i | / |

| cpd | Rango dissoc inh | ASM inhibitor | TDP-43 yeast inh |
| --- | --- | --- | --- |
| 33 | 5.6% | -17.1% | 22.4µM* |
| 34 | / | / | / |
| 35 | / | / | 19.8% |
| 36 | -3.2% | -4.5% | 3.55µM* |
| 37 | -10.2% | -5.0% | ? |
| 38 | 8.2% | 15.8% | 7.08µM* |
| 39 | -15.1% | 15.6% | 3.98µM* |
| 40 | / | / | 35.5µM* |

The list goes on:
| cpd | structure | Rango-impB inh | Abeta rescue | aSyn yeast inh |
| --- | --- | --- | --- | --- |
| 41 | CCn1ccc2c(OCC(=O)Nc3ccc(C)c(Cl)c3)cccc2c1=O | / | i | / |
| 42 | CCCn1ccc2c(OCC(=O)Nc3ccc(OC)c(OC)c3)cccc2c1=O | / | i | / |
| 43 | CCCn1ccc2c(OCC(=O)Nc3ccc(F)cc3F)cccc2c1=O | / | i | / |
| 44 | CCOc1cccc2sc(N(Cc3cccnc3)C(=O)c3ccc(C#N)cc3)nc12 | / | i | / |
| 45 | CC(=O)c1cc2c(C)c(C(=O)c3ccccc3)oc2cc1O | 6.51µM* | i | -5.3% |
| 46 | Cc1ccc(-c2cc(C(=O)Nc3cccc(S(=O)(=O)N(C)C)c3)c3ccccc3n2)o1 | ? | i | -1.6% |
| 47 | O=c1c(S(=O)(=O)c2ccccc2)cn(Cc2ccc(F)cc2)c2cc(N3CCCCC3)c(F)cc12 | / | i | / |
| 48 | c1ccc(Nc2nc(-c3cccs3)cs2)nc1 | -2.4% | i | -21.2% |
| 49 | CC(=O)Oc1ccc(-c2csc(Nc3ccccn3)n2)cc1 | / | i | -29.9% |
| 50 | Fc1ccc(-c2csc(Nc3ccccn3)n2)cc1 | 0.8% | i | -17.7% |
| 51 | Fc1ccc(-c2csc(-c3ccncc3)n2)cc1 | 0.0% | i | 2.9% |

| cpd | Rango dissoc inh | ASM inhibitor | TDP-43 yeast inh |
| --- | --- | --- | --- |
| 41 | / | / | 22.4µM* |
| 42 | / | / | 0.0% |
| 43 | / | / | 22.4µM* |
| 44 | / | / | -2.8% |
| 45 | ? | -22.9% | -2.4% |
| 46 | 14.6µM* | i | -13.4% |
| 47 | / | / | 24.3% |
| 48 | 11.5% | -1.6% | 35.5µM* |
| 49 | / | / | 12.6µM* |
| 50 | -9.2% | -9.2% | 11.2µM* |
| 51 | 5.8% | 5.3% | 12.6µM* |
